Here are results for 7 molecules from patent US9156822B2, “Functionally selective ligands of dopamine D2 receptors” (The University of North Carolina at Chapel Hill, priority 2010, dated 2015).

The chains behind the UniProt entries cited, without tags or fusion partners.
UniProt P14416, whole entry, looked up: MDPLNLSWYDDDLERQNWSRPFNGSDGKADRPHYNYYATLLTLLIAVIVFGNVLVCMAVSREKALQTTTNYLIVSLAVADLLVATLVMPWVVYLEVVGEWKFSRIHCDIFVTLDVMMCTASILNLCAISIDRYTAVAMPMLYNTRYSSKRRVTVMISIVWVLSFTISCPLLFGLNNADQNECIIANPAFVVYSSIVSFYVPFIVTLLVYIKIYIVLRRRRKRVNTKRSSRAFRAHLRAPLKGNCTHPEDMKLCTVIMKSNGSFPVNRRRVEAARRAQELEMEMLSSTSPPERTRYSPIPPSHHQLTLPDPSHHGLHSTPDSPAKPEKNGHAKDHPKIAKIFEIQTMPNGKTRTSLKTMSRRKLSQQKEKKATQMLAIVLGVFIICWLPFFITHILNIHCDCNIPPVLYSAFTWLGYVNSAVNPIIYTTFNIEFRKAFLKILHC

One may read the EC50 as the midpoint of the concentration-response curve. One may read the Emax as the greatest response seen or fitted, relative to the assay's reference. As usually defined, the Ki is a dissociation constant, usually derived from enzyme kinetics or from competition with a known ligand.

Data set [1] has as its system wild-type and β-arrestin-2 knockout mice. Conditions: i.p., 5.0 mg/kg (haloperidol 2.0 mg/kg), 30 and 60 min.
The nature of the next data set: in vivo. To be noted: mouse.
Data set [2] addresses T1, D2 receptors (Homo sapiens (Human), UniProt P14416). The experiment in a line: D2 β-arrestin recruitment (Tango) assay. The format is cell-based. Conditions: for EC50: HTLA cells; for Emax: normalized to quinpirole (100%).
The next data set addresses hD2L dopamine receptor (Homo sapiens (Human), UniProt P14416). The experiment in a line: pERK high-content assay. The format is cell-based. Conditions: normalized to dopamine; read-out: p-ERK Emax.
Another data set concerns the target hD2 receptors (Homo sapiens (Human), UniProt P14416). The experiment in a line: D2 mediated cAMP GloSensor assay. On cAMP (GloSensor) activity in words (merged EC50/Emax cell): key: neutral: Neutral ligands are either antagonists or are inactive. Conditions: for EC50: read-out: cAMP (GloSensor) EC50; for Emax: read-out: cAMP (GloSensor) Emax.
The target of data set [3] is T1, D2 receptors. Conditions: read-out: D2 Binding Ki ± SEM.
[4] abbreviates: HEK293T, isoproterenol-stimulated cAMP.

Like-named read-outs stand apart in the source and are kept apart here.

With `O=C1CCc2ccc(OCCCCN3CCN(c4cccc(Cl)c4Cl)CC3)cc2N1` [Aripiprazole, aripiprazole, reference compound], in data set [1], the “catalepsy (latency to move, inclined screen test)” value is recorded as “do not induce catalepsy”. In “in vivo” (brain), this molecule displayed a concentration at 0.08 h of 88.8 ng/g, a concentration at 0.5 h of 166 ng/g, a concentration at 1 h of 134 ng/g and a concentration at 2 h of 115 ng/g. Further, in the data set “in vivo” (brain), the concentration at 4 h was 75.8 ng/g, the concentration at 8 h turned out to be 42.2 ng/g and the concentration at 24 h was determined as 8.8 ng/g. In the data set “in vivo” (plasma), this molecule had a concentration at 0.08 h of 53.3 ng/mL, a concentration at 1 h of 68 ng/mL, a concentration at 2 h of 49.8 ng/mL and a concentration at 4 h of 31.8 ng/mL. For the same molecule, in “in vivo” (plasma), the concentration at 8 h came out at 14.5 ng/mL and the concentration at 24 h worked out at 2 ng/mL.
As for `O=C1NCCc2ccc(OCCCCN3CCCN(c4cccc(Cl)c4Cl)CC3)cc21` [Compound 6, 7-(4-(4-(2,3-dichlorophenyl)-1,4-diazepan-1-yl)butoxy)-3,4-dihydroisoquinolin-1(2H)-one], on D2 receptors [2], the “β-arrestin (Tango) % activ at 1 μM” value stood at 7%, the EC50 came to 6.2 nM and the Emax amounted to 32%. The Emax on hD2L dopamine receptor was less than 5%. Further, on hD2 receptors, the EC50 worked out at 9870 nM and the Emax was -76%. Moreover, the Ki on D2 receptors [3] was found to be 4.6 ± 0.6 nM.
Take `Clc1cccc(N2CCCN(CCCCOc3ccc4scnc4c3)CC2)c1Cl` [Compound 7, 5-(4-(4-(2,3-dichlorophenyl)-1,4-diazepan-1-yl)butoxy)benzo[d]thiazole]: at D2 receptors [2], the “β-arrestin (Tango) % activ at 1 μM” value was found to be 4%, the EC50 worked out at 23 nM and the Emax turned out to be 38%. Further, on hD2 receptors, the “cAMP (GloSensor) activity in words (merged EC50/Emax cell)” value is “neutral”. The inhibition constant (Ki) on D2 receptors [3] turned out to be 18 ± 2 nM.
As for `COc1ccccc1N1CCCN(CCCCOc2ccc3ccc(=O)[nH]c3c2)CC1` [Compound 10, 7-(4-(4-(2-methoxyphenyl)-1,4-diazepan-1-yl)butoxy)quinolin-2(1H)-one], the EC50 at hD2 receptors (setting [4]) came to 306 nM. Also, on hD2 receptors, the Emax was -98%.
Taken in the same sequence, the figures for `CCOc1ccccc1N1CCCN(CCCCOc2ccc3ccc(=O)[nH]c3c2)CC1` [Compound 14, 7-(4-(4-(2-ethoxyphenyl)-1,4-diazepan-1-yl)butoxy)quinolin-2(1H)-one] were 27 nM and 16%.
For the molecule `O=c1[nH]c2ccc(OCCCCN3CCC(c4cccc(Cl)c4Cl)CC3)cc2[nH]1` [Compound 24, 5-(4-(4-(2,3-dichlorophenyl)piperidin-1-yl)butoxy)-1H-benzo[d]imidazol-2(3H)-one], at D2 receptors [3], the Ki stood at 10.9 ± 0.3 nM.
On to `O=c1ccc2ccc(OCCCCN3CCN(c4cccc5c4OCCO5)CC3)cc2[nH]1` [Compound 42, 7-(4-(4-(2,3-dihydrobenzo[b][1,4]dioxin-5-yl)piperazin-1-yl)butoxy)quinolin-2(1H)-one], for which, on D2 receptors [2], it took 0.9 nM to reach a half-maximal effect (EC50) and the Emax was 31%. Also, the “cAMP (GloSensor) activity in words (merged EC50/Emax cell)” value at hD2 receptors was “neutral”. Also, on D2 receptors [3], the Ki is 0.4 ± 0.02 nM.
